{"source": "paper PMC11489552", "about": "“Specific targeting of cancer vaccines to antigen-presenting cells via an endogenous TLR2/6 ligand derived from cysteinyl-tRNA synthetase 1” (Molecular Therapy, 2024)", "test": "In vivo toxicity (body weight, spleen, serum cytokines)", "parameters": "species or system C57BL/6 mice", "settings": "s.c., Pam2CSK4 100.6 nmol", "data": [{"substance": "Pam2CSK4", "values": [{"measurement": "spleen size (splenomegaly)", "setting": "48 h after administration", "value": "splenomegaly"}, {"measurement": "body weight", "setting": "EUCV 25 mpk (25.2 nmol) and 100 mpk (100.6 nmol), measured at 0, 24, 48 h", "value": "induced weight loss"}]}]}
